Reference: patent US10736974B2, “Scaffolds and multifunctional intermediates for imaging PSMA and cancer therapy” (THE JOHNS HOPKINS UNIVERSITY, priority 2014, dated 2020)

Protein sequences, listed by entry. Tags and fused reporters are not part of them.
UniProt Q04609, whole entry: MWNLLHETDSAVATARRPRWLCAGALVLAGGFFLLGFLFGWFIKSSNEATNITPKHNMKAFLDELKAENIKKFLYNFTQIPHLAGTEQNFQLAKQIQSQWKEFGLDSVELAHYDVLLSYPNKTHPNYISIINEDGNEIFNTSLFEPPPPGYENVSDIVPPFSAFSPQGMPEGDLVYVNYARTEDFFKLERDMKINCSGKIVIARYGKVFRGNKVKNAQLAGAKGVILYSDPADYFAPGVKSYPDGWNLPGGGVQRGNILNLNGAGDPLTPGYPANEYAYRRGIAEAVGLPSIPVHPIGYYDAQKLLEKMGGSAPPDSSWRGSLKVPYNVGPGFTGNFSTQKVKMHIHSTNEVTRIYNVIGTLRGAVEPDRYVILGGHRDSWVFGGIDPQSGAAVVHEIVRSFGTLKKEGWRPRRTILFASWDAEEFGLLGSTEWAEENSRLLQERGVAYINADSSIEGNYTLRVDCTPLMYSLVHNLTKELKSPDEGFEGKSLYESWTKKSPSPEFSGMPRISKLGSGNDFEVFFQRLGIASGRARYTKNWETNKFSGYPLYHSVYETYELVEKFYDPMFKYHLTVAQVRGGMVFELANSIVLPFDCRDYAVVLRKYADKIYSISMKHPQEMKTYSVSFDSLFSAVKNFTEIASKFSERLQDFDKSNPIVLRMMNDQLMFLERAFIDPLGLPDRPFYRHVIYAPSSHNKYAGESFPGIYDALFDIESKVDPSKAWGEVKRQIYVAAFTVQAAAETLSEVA

Target: PSMA (Homo sapiens (Human), UniProt Q04609)
Assay: NAALADase assay: PSMA inhibitory activity, fluorescence-based Amplex Red Glutamic Acid assay, lysates of LNCaP cell extracts
Assay type: biochemical
Conditions: Table 4
Procedure: Briefly, lysates of LNCaP cell extracts (25 μL) were incubated with the inhibitor (12.5 μL) in the presence of 4 μM N-acetylaspartylglutamate (NAAG) (12.5 μL) for 120 min. The amount of the glutamate released by NAAG hydrolysis was measured by incubating with a working solution (50 μL) of the Amplex Red Glutamic Acid Kit for 60 min. […] Assays were performed in triplicate. Data analysis was performed using GraphPad Prism version 4.00 for Windows (GraphPad Software, San Diego, Calif.).

A Ki of 14 nM was found for `O=C(O)CC[C@H](NC(=O)N[C@@H](CSCc1ccc(F)cc1)C(=O)O)C(=O)O` [DCFBC, N-[N-[(S)-1,3-Dicarboxypropyl]carbamoyl]-4-fluorobenzyl-1-cysteine, reference compound] in this work.
